Activity and inhibition data for two compounds are collected here from ChEMBL document CHEMBL4376854, “Investigation of the Adrenergic and Opioid Binding Affinities, Metabolic Stability, Plasma Protein Binding Properties, and Functional Effects of Selected Indole-Based Kratom Alkaloids” (J Med Chem, 2020).

The chains behind the UniProt entries cited, without tags or fusion partners. Where a name states a change or a piece, a line headed by the entry shows the natural chain unless it says otherwise.
UniProt P41146: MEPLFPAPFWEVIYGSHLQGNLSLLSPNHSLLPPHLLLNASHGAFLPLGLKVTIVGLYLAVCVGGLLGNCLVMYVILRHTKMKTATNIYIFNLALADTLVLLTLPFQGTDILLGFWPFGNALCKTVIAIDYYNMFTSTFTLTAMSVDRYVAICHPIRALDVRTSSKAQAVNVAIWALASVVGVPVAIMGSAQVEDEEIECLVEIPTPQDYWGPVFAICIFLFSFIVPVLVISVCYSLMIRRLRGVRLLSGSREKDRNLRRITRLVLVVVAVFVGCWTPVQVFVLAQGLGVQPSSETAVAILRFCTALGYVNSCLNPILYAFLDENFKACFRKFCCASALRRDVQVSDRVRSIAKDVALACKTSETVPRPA

The subject of one test is Rattus norvegicus. The experiment in a line: Antinociceptive activity in Sprague-Dawley rat dosed intravenously using cumulative dosing every 5 mins until rat maxed-out on hot plate co-treated with 0.1 mg/kg naltrexone by hot plate test. It is filed as functional, organism-based.
Test [1] concerns the target Nociceptin receptor (Homo sapiens) (UniProt P41146). As to conditions: 100 nM.
Test [2] shares this target. The note with it: 10000 nM.

SMILES strings stand for the structures. The source made the active and inactive calls. The calls are words filed in the database; no cut-off is given here.

With `CN(C(=O)Cc1ccccc1)[C@H]1CC[C@@]2(CCCO2)C[C@@H]1N1CCCC1`, the outcome in the test with Rattus norvegicus was inactive. For the compound `CC[C@@H]1CN2CC[C@@]3(O)C(=Nc4cccc(OC)c43)[C@@H]2C[C@@H]1/C(=C\OC)C(=O)OC`, the inhibition in test [1] is -1.6%; in test [2], 3.4%.

A word on the inhibition: it is the change of the read-out against control, counted positive when it falls.
